Earlier results, collected in patent US20040258692A1, “Method for the treatment of cardiotoxicity induced by antitumor compounds” (priority 2001, published 2004).

Tested on: metastatic breast cancer (MBC)
Conditions: first-line or second-line therapy for MBC, cited from earlier work

Trastuzumab: recombinant DNA-derived humanized monoclonal antibody (IgG1 kappa) that binds HER2
response rates (single-agent trastuzumab): 12% to 23 | response rates (trastuzumab plus chemotherapy): 25% to 62

Read-outs that look alike come from different tables or passages of the source.
